Data as given in ChEMBL document CHEMBL4014325.

experiment: Inhibition of calcium activated chloride channel in ATP-activated human HT-29 cells expressing YFP-H148Q/152L assessed as reduction in iodide influx preincubated for 10 mins followed by ATP addition by fluorescence assay
Outline: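 Endogenous non-TMEM16A CaCC in HT-29 cells expressing YFP, read by plate reader. Initial rate of I⁻ influx taken as a linear measure of channel function. IC₅₀ from concentration-inhibition data; n=3.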

| Structure (SMILES) | IC50 |
| --- | --- |
| Cc1ccccc1NC(=O)c1c(NC(=O)C(F)(F)Cl)sc2c1CCCCC2 | 9.5 µM |
| Cc1ccccc1NC(=O)c1c(NC(=O)C(F)(F)I)sc2c1CCCCC2 | 3.5 µM |
| Cc1ccccc1NC(=O)c1c(NC(=O)C(F)(F)Br)sc2c1CCCCC2 | 5.4 µM |
